This note sets out measurements from ChEMBL document CHEMBL1821575, “A novel amino-benzosuberone derivative is a picomolar inhibitor of mammalian aminopeptidase N/CD13” (Bioorg Med Chem, 2011).

This assay has as its target T1, Aminopeptidase N (Sus scrofa) (UniProt P15145).
T1 sequence (whole entry): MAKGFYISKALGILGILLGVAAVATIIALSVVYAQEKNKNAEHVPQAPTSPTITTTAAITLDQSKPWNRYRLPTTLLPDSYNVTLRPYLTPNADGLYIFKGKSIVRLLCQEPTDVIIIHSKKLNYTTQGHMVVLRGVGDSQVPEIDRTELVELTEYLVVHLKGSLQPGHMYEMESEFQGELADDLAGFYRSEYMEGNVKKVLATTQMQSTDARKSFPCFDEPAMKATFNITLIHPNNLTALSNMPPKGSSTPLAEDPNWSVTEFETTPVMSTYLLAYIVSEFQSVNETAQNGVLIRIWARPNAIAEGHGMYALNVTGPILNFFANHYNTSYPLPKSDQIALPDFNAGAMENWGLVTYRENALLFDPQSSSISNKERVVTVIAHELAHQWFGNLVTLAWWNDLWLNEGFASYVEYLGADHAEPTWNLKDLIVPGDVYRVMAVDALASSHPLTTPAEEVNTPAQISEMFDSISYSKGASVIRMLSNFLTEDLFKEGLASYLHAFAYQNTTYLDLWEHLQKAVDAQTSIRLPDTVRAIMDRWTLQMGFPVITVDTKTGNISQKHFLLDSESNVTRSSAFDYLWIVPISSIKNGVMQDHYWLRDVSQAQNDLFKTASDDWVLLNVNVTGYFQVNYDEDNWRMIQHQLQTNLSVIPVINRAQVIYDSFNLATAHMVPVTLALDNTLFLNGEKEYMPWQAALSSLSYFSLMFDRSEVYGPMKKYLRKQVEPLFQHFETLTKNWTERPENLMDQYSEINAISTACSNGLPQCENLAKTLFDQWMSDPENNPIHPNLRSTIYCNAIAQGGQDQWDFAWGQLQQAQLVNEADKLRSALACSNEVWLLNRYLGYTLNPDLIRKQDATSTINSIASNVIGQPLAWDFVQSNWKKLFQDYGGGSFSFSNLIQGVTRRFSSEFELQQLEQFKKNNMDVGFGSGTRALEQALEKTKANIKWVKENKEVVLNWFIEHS
Put plainly: Competitive inhibition of porcine kidney APN using L-leucine-p-nitroanilide as substrate after 30 mins by Dixon plot analysis.

Molecules are shown by their SMILES. Active and inactive are the calls of the source. No cut-off for these calls is given here.

In the case of `NC1CCc2c(Br)ccc(-c3ccccc3)c2CC1=O` (racemic), the inhibition result was “Active”.
